The target in the assay is T1, rat SSTR-5 (Rattus norvegicus, UniProt P30938).
T1 construct: Crude membranes were prepared by homogenization of rat olfactory bulb cells; tissue Zivic-Miller Laboratory, Inc; host or cells: rat olfactory bulb
T1 sequence (P30938 1-363): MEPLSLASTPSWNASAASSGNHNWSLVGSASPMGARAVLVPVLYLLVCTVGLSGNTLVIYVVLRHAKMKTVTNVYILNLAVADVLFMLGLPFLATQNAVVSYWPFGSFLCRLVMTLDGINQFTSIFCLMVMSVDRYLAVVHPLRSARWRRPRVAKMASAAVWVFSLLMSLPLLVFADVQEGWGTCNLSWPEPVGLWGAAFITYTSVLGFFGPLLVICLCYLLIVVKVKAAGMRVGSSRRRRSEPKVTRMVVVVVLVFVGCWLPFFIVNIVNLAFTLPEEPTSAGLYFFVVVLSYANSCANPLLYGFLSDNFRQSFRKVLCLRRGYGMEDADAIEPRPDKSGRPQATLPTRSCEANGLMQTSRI
Kind of assay: Rat SSTR-5 binding assay ([125I-Tyr11]somatostatin-14, rat olfactory bulb membranes). Particulars: read-out: Ki SSTR-5, radioligand [125I-Tyr11]somatostatin-14 0.05 nM. As to the method:
Crude membranes were prepared by homogenization of rat olfactory bulb cells (Zivic-Miller Laboratory, Inc., Zellenople, Pa.) in 20 ml of ice-cold 50 mM Tris-HCl with a POLYTRON homogenizer (setting 6, 15 sec). Buffer was added to obtain a final volume of 40 ml, and the homogenate was centrifuged in a Sorval SS-34 rotor at 39,000 g for 10 min at 0-4° C. The resulting supernatant was decanted and discarded. The pellet was rehomogenized in ice-cold buffer, diluted, and centrifuged as before. The final pellet was resuspended in the 10 mM Tris HCl and held on ice for the receptor binding assay.
The final assay volume was 0.3 ml. The incubations were terminated by rapid filtration through GF/C filters (pre-soaked in 0.3% polyethylenimine for 30 min) using a Brandel filtration manifold. Each tube and filter were then washed three times with 5 ml aliquots of ice-cold buffer.

What is called Ki is the equilibrium dissociation constant of an inhibitor or competing ligand from its target. Turning to Somatostatin-14 [reference compound], the Ki turned out to be 470 pM.

Values taken from patent US6774109B2, “Inhibition of amylin release” (Societe de Conseils de Recherches et d'Applications …, priority 1995, dated 2004).
